Measurements reported in patent US8173840B2, “Compounds with high therapeutic index” (Signature R&D Holdings, LLC, priority 2003, dated 2012).

Experiments:
laboratory mice = assay: DSS induced ulcerative colitis in mice, disease treatment study (Disease Activity Index); format: in vivo, mouse
Source text: The mean group DAI is the determined.
Much more dramatic results were obtained when the mice were initially treated with DSS to induce colitis. Once clear symptoms of colitis were seen, DSS was replaced by drinking water, and treatment started with test and reference drugs, including vehicle control. All results are mean of 10 mice.

[1] = room temperature
[2] = 0.2% w/v aqueous solution, pH around 5, room temperature

| Substance | mice that died (out of 10) (laboratory mice) | solubility in aqueous solution [1] | solubility, times that of Cyclosporine A in water [1] [times] | clear solution stable for [2] [months] |
| --- | --- | --- | --- | --- |
| Cyclosporine A N-(L-proline)-glycine ester, hydrochloride [Cyclosporine-GP] | none died | approximately 2000 micrograms/ml | 60 | 3 |
| Cyclosporine A N-(L-lysine)-glycine ester, dihydrochloride trihydrate [Cyclosporine-GL] | 1 |  |  |  |
